Measurements from PMC9339560 (Journal of Food and Drug Analysis, 2016).

Amino acid sequences for entries named in this document (tags omitted).
UniProt P81908, whole entry: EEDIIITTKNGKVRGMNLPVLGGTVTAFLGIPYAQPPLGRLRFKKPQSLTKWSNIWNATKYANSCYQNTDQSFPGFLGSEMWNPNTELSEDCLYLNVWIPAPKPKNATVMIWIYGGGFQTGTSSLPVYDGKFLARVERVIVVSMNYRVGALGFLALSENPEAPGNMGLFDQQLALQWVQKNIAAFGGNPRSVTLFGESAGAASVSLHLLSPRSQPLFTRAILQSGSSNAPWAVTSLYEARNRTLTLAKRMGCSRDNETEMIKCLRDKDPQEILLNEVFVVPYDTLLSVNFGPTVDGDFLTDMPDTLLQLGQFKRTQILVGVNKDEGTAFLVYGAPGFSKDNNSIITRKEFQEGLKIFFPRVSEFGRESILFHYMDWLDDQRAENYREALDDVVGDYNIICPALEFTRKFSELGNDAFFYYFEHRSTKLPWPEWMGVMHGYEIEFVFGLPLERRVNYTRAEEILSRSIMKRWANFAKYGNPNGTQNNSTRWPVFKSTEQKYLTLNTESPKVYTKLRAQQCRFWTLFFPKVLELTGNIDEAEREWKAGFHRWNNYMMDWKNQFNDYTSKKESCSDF

Target: butyrylcholinesterase from equine serum (Equus caballus, UniProt P81908)
Test: Butyrylcholinesterase
Format: biochemical
Settings: IC50 BChE, mean ± SD (n = 3); Table 4

## CNC(=O)Oc1ccc2c(c1)[C@]1(C)CCN(C)[C@@H]1N2C [Physostigmine, physostigmine]
  IC50: 581 nM
